The values that follow come from patent US20040102442A1, “Remedies for alzheimer's disease” (priority 2000, published 2004).

Sequences of proteins named here, by UniProt entry; tags and fusion partners are left off. Residues count along the entry.
UniProt O15496, 43-165 limits assumed: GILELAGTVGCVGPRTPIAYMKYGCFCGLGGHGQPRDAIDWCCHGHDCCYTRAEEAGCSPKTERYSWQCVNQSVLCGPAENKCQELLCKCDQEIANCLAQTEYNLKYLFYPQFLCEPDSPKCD

The experiment addresses Human type-X sPLA2 (Homo sapiens, UniProt O15496). Put plainly: type-X sPLA2 inhibition test (chromogenic assay, diheptanoylthio PC). The note with it: diheptanoylthio PC 1 mM, Triton X-100 0.3 mM, 30 min at 40° C., absorbance at 405 nm.

Turning to `NC(=O)C1=CCCc2c1c1c(OCC(=O)O)cccn1c2Cc1ccccc1`, the IC50 worked out at 5 nM.

As a reminder, the IC50 is the concentration that inhibits the measured activity by half. High values mean a need for much substance, low ones inhibition by little substance.
